Source: patent EP3771713A1 (priority 2019, dated 2021)
This is a selection: effects in other tests are not listed, and their absence says nothing.

The chains behind the UniProt entries cited, without tags or fusion partners. Residues count along the entry.
UniProt P06276, 29-602 limits assumed: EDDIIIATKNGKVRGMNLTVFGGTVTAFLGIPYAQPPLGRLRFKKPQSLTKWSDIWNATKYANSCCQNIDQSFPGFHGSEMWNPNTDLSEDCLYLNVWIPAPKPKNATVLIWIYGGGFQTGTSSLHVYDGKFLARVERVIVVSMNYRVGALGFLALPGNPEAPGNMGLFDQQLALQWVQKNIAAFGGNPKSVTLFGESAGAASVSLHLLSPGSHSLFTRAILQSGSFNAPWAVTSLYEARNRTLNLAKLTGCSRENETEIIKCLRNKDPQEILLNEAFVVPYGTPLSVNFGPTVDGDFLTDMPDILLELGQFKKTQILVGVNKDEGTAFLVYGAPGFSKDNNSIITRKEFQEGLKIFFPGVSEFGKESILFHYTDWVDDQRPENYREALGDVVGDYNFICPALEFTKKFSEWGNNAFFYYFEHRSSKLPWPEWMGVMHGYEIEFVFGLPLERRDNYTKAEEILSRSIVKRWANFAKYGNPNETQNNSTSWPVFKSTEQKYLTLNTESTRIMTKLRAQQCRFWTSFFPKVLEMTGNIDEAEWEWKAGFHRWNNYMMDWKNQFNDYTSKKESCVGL
UniProt P22303, 32-614 limits assumed: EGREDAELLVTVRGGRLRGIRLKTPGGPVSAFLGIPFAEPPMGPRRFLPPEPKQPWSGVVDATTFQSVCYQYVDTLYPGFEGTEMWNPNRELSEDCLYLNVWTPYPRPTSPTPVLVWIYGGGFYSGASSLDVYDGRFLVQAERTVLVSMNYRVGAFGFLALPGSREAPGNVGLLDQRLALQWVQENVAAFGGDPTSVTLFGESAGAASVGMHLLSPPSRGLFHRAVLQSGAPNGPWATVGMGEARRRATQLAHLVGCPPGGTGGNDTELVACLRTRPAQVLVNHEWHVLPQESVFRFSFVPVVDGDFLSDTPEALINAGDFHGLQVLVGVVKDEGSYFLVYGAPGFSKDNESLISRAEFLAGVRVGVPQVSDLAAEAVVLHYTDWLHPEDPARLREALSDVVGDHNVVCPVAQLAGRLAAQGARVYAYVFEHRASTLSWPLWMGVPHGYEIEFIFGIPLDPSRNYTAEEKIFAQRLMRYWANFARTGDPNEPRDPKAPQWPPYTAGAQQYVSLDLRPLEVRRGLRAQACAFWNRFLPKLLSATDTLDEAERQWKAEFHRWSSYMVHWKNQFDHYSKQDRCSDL
UniProt P21554, whole entry: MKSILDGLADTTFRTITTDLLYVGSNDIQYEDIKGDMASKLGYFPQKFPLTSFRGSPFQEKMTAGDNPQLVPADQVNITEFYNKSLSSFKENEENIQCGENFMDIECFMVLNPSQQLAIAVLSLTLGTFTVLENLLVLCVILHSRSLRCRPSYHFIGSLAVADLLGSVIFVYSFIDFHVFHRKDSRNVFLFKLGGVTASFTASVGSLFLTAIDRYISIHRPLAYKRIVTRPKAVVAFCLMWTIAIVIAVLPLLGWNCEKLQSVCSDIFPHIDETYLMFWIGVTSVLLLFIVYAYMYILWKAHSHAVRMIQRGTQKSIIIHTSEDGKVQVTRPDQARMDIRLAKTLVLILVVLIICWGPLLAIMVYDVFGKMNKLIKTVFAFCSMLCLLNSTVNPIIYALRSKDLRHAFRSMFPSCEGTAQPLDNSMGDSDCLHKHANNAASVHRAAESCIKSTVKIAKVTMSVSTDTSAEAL
UniProt O42275, 24-633 limits assumed: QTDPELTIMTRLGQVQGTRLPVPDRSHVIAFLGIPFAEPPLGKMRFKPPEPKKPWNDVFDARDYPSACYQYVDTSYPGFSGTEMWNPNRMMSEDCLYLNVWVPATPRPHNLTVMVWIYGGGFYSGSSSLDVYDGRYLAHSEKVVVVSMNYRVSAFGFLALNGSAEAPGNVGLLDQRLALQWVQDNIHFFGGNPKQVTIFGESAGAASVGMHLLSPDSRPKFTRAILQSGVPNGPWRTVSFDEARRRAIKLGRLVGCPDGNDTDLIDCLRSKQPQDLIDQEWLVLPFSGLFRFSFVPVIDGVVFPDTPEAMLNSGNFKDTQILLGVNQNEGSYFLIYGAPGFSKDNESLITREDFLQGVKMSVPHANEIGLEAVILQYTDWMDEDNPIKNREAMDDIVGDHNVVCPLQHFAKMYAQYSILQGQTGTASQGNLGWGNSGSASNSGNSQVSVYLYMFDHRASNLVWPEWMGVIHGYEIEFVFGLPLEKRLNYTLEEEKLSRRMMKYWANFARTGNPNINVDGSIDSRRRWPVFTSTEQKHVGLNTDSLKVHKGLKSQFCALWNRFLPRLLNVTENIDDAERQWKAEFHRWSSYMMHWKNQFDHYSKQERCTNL
UniProt P34972, whole entry: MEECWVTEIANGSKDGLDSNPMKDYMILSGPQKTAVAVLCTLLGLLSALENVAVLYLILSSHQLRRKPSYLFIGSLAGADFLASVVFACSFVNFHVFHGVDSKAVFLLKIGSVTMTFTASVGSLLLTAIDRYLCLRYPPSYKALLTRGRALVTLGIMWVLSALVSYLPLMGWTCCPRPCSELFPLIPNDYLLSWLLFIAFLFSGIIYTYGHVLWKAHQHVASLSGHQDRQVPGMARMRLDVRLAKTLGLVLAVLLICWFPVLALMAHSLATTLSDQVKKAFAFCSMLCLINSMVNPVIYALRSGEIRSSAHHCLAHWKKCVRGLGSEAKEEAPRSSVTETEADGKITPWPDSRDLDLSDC

What was measured:
hBChE = hBChE (Homo sapiens, UniProt P06276); experiment: Ellman's assay, inhibition of hBChE; type: biochemical
HT-22 cells [1] = experiment: Neurotoxicity on HT-22 cells (MTT assay); settings: 24 h, max. 10 µM
Livers of mice = experiment: Liver histology of mice treated with the high dose; settings: Aβ25-35 mice, 3 mg/kg
hAChE = hAChE (Homo sapiens, UniProt P22303); experiment: Ellman's assay, inhibition of hAChE; type: biochemical; settings: hAChE recombinant expressed
hCB1R = hCB1R (Homo sapiens, UniProt P21554); experiment: Radioligand binding ([^3H]CP 55,940) at hCB1R, membranes of CHO cells; settings: 10 µM of the compound
eeAChE = eeAChE (Electrophorus electricus, UniProt O42275); experiment: Ellman's assay, inhibition of eeAChE; type: biochemical; settings: read-out: IC50 AChE (eeAChE); eeAChE from electric eel
hCB2R = hCB2R (Homo sapiens, UniProt P34972); experiment: Radioligand binding ([^3H]CP 55,940) at hCB2R, membranes of HEK cells; settings: membranes of HEK cells stably expressing hCB2R
HT-22 cells [2] = settings: 5 mM glutamate, 24 h, MTT
[3] = test system: Aβ25-35-induced learning impairments in mice; settings: i.p., once per day day 1 to 7

`CCOc1ccc(Cc2nc3cc(C(=O)N(CC)CC)ccc3n2CCNc2c3c(nc4ccccc24)CCCC3)cc1` was tested, and the SI (hBChE; Selectivity index towards hBChE = IC50(eeAChE)/IC50(hBChE)) was 750, the “inhibitory potency towards hBChE compared to tacrine” value (hBChE; compared to tacrine) was “increased inhibitory potency” and the “pIC50 ± SD hBChE” value (hBChE; hBChE from human serum) was 8.9 ± 0.1. For the same molecule, the IC50 (hBChE; read-out: IC50 hBChE, hBChE from human serum, means of at least three determinations) was 1.2 nM, the “neurotoxicity (in words)” value (HT-22 cells [1]) was “no neurotoxicity” and the “Micro vesicular steatosis % of specimen” value (Livers of mice) was 66%. The “Micro vesicular steatosis positive/specimen” value (Livers of mice) was 8 / 12, the “Micro vesicular steatosis reported area %” value (Livers of mice) was 5-30% and the “Necrosis % of specimen” value (Livers of mice) was 66%. For the same molecule, the “Necrosis reported area %” value (Livers of mice) was 2-50%, the Necrosis positive/specimen (Livers of mice; fresh necrosis) was 8 / 12 and the “pIC50 ± SD AChE (hAChE)” value (hAChE) was 8.6 ± 0.1. For the same molecule, the IC50 (hAChE; read-out: IC50 AChE (hAChE)) was 2.8 nM, the “[^3H]CP 55,940 displ. @10 µM hCB1R” value (hCB1R) was 36% and the IC50 (eeAChE) was 900 nM. For the same molecule, the “pIC50 ± SD hCB2R (in brackets after Ki)” value (hCB2R) was 4.4 ± 0.3, the Ki (hCB2R; read-out: Ki hCB2R) was 38500 nM and the “neuroprotective behavior (in words)” value (HT-22 cells [2]) was “none”. The “dose that significantly prevented Aβ25-35-induced learning impairments” value [3] was at least 1 mg/kg.
